Assay results as given in patent US20080317767A1, “Tripartitle Raftophilic Strutures and their Use” (priority 2004, published 2008).

Assay: Liposome raftophile assay (LRA)
Assay type: physicochemical
Conditions: Example 34; compound 0.2-2.0 μM, 1 h at 37° C.
Experimental: The propensity of a compound to partition into the raft domain may be determined in an assay measuring the concentration of the compound in the raft domain and that in the non-raft domain after a given incubation time with the lipid membrane system under study. Apart from the DRM test discussed above, a liposome raftophilicity assay (LRA) may be employed. […] The fractions are separated and the amount of test compound in each is determined For each liposome type a lipophilicity value is determined from the amount of compound taken up by the liposome. […] Yet, the person skilled in the art is readily in a position to carry out a LRA by carrying out the following, summarized protocol. Lipophilicity of a compound is, inter alia, measured by said LRA. […]
The test system comprises three components in which test compounds may be found, the lipid membrane, the aqueous supernatant and in the test tube wall. Following incubation, the liposomes are removed from the system and test compounds are measured in the aqueous and tube wall fraction by fluorimetry or quantitative mass spectrometry. […]
The partition of test compounds into liposomes representing either non-raft or raft membrane is determined. […]
Compounds are detected in the aqueous supernatant and the adherent fraction by fluorimetry or quantitative mass spectrometry. […]

cholesteryl glycolic acid [cholesterol-based raft anchor]
LRA raftophilicity (ratio of partition coefficients raft/non-raft liposomes): approximately 50
